# Key:
# ANGPTL3 = test: RNA-seq of ANGPTL3 expression in compound-treated primary human hepatocytes; assay type: cell-based; conditions: additional compounds (Table 13)
# Procedure: (§1) Human hepatocytes were obtained from two donors from Massachusetts General Hospital, namely MGH54 and MGH63, and one donor from Lonza, namely HUM4111B. Cryopreserved hepatocytes were cultured in plating media for 16 hours, transferred to maintenance media for 4 hours. Cultured on serum-free media for 2 hours, then a compound was added. The hepatocytes were maintained on the serum-free media for 16 hours prior to gene expression analysis. Primary human hepatocytes were stored in the vapor phase of a liquid nitrogen freezer (about −130° C.).
# (§2) Human hepatocytes cultured as described above were plated in 24-well format, adding 375,000 cells per well in a volume of 500 ul plating medium. Four hours before treatment, cells were washed with PBS and the medium was changed to either: fresh maintenance medium (complete) or modified maintenance medium.
# Compound stocks were prepared at 1000× final concentration and added in a 2-step dilution to the medium to reduce risk of a compound precipitating out of solution when added to the cells, and to ensure reasonable pipetting volumes. […]
# (§3) For mRNA isolation and library prep, the NEBNext Poly(A) mRNA Magnetic Isolation Module and Directional Prep kit was used. RNA isolated from cells above was quantified, and prepared in […] of each sample in 50 μl of nuclease-free water. […]
# UGT1A1 = test: RNA-seq of UGT1A1 expression in compound-treated primary human hepatocytes; assay type: cell-based
# Procedure: as §1
# as §2, with “maintenance medium. […]” for “maintenance medium.”
# as §3
# Standard QC were applied (read integrity, mapping statistics, library complexity, fragment bias) to remove unsatisfactory samples. […] RNA-seq signals were also normalized by read depth and visualized using the UCSC browser. […]
compound,measurement,setting,value
CC1(C)CCC(C)(C)c2cc(C(=O)Nc3ccc(C(=O)O)cc3)ccc21 [AM 580],ANGPTL3-LINEAR FOLD CHANGE,ANGPTL3,0.3737
CCOC(=O)c1cncn1[C@H](C)c1ccccc1 [Etomidate],UGT1A1 Fold Change (Log2),UGT1A1,0.56 Log2
Ibutilide Fumarate,ANGPTL3-LINEAR FOLD CHANGE,ANGPTL3,0.4538

# From US20210161997A1, “TREATING DISEASES VIA TARGETED MODULATION OF GENE SIGNALING NETWORKS” (Camp4 Therapeutics Corporation, priority 2018, published 2021)
